Results reported in patent publication US20240408246A1, “Animal Model With Rapid Onset Of Alzheimer's Amyloid Beta Plaque Pathology” (Regeneron Pharmaceuticals, Inc., priority 2023, published 2024).

Test system: AAV-APP/PS1 mouse model
Experiment: Prophylactic anti-Aβ antibody treatment in the AAV-APP/PS1 mouse model
Type: in vivo
Details: weekly antibody for 7 weeks from 1 week post-AAV injection
Protocol: Antibody treatment was started 1 week post-AAV injection to induce amyloid plaque deposition. Antibody was administered weekly for 7 weeks before taking down the mice 1 week after the final antibody administration.
We tested an anti-Aβ antibody, Aducanumab, which is known to clear plaques in Alzheimer's patients, in the AAV-APP/PS1 mouse model described in Example 1. We started antibody treatment 1 week post-AAV injection in the hippocampus to induce amyloid plaque deposition. We did weekly antibody administration for 7 weeks and took down the mice 1 week after the final antibody administration (FIG. 20A).

## Aducanumab
  levels of APP and intracellular APP C-terminal fragments: did not change
Compared to control antibody
  plaque-associated dystrophic neurite marker Lamp1: significantly reduced
Taken down 1 week after final administration, compared to control antibody
  plaque levels: significantly reduced
